This passage reports Ki results from BindingDB's records for doi:10.1124/mol.64.6.1295 (Glaxosmithkline, 2003).

Sequences of proteins named here, by UniProt entry; tags and fusion partners are left off.
UniProt P31388, whole entry: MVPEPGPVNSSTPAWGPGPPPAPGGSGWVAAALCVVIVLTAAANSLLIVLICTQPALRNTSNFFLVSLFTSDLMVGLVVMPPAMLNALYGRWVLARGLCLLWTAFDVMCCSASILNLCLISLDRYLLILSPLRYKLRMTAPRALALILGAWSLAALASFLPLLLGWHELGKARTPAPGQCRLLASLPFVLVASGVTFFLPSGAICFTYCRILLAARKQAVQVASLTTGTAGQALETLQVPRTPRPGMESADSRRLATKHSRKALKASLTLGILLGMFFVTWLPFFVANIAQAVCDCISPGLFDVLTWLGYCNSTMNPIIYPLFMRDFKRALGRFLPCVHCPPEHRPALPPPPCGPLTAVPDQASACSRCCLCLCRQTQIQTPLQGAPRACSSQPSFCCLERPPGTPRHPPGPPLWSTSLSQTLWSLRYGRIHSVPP

Broadly, the Ki is the dissociation constant of the complex between target and ligand, obtained from inhibition or displacement. Low values mean tighter binding, high ones weaker binding.

This assay has as its target 5-hydroxytryptamine receptor 6 (Rattus norvegicus, UniProt P31388).

The molecule `CSc1ccc2c(c1)C(N1CCN(C)CC1)Cc1ccccc1S2` (stereo unspecified) [methanesulfonic acid;1-methyl-4-(3-methylsulfanyl-5,6-dihydrobenzo[b][1]benzothiepin-5-yl)piperazine] yielded a Ki of 1.05 nM.
